Source: patent US20150010545A1 (KADMON CORPORATION, LLC, priority 2011, published 2015)

Tests used:
[1] = tested on: JIMT-1 cells; assay: JIMT-1 cell proliferation assay (CellTiter 96 AQueous); type: cell-based; settings: 72 hours
Method: (§1) JIMT-1 and HCC1954 cells were seeded into 96-well plates (Costar), in Dulbecco's Modification of Eagle's Medium (DMEM, Invitrogen) containing 10% Fetal Bovine Serum (heat inactivated FBS, Hyclone), 1% Penicillin-streptomycin (Hyclone). 18 hours after seeding, cells were treated with the compounds for 72 hours. Triplicate wells were used for each compound concentration. The control wells were treated with 0.2% DMSO media. The cultures were incubated at 37° C., 5% CO2 and the quantity of proliferating cells was determined using the “CellTiter 96 AQueous Non-Radioactive Cell Proliferation Assay kit” (Promega). Following incubation with the substrate solution, the plate was read using Infinite M1000 plate reader (Tecan). IC50 values were calculated based on the GraphPad Prism software analysis. Percentage inhibition of cell proliferation was calculated as [1-(treated cells/control cells)×100].

[2] = tested on: HCC1954 cells; assay: HCC1954 cell proliferation assay (CellTiter 96 AQueous); type: cell-based; settings: 72 hours
Method: as §1

[3] = tested on: JIMT-1 tumors; type: in vivo; settings: trastuzumab 20 mg/kg i.p. biwk×5 monotherapy, SCID mice
Source text: Female severe combined immunodeficient mice (Fox Chase SCID®, C.B-17/Icr-Prkdc^scid, Charles River Laboratories) were ten weeks old, with a body weight range of 17.6 to 20.8 grams on Day 1 of the study. Treatment began on Day 1 in four groups of mice (n=12) with upstaged subcutaneous JIMT-1 tumors (196-405 mm^3). […] The experiment included a vehicle-treated control group and a trastuzumab monotherapy group. During the study, the EXEL-7647 dosing schedule was modified to once daily on Days 1-19, 28, 29, 32-36, and 39-42, due to toxicity. Tumors were measured twice per week until the study was ended on Day 42. Treatment outcome was determined from percent tumor growth inhibition (% TGI), which evaluated the percent differences in median tumor volumes (MTVs) between treated and control mice at the end of daily dosing (Day 18) and at the end of the study (Day 42), with differences between groups deemed statistically significant at P<0.05 using the Mann-Whitney U-test. […]. Mice were also monitored for complete regression (CR) and partial regression (PR) responses, and for the frequency of 30% tumor volume (TV) regression from Day 1. The 30% TV regressions were deemed statistically significant at P<0.05 using the chi-square test. Treatment tolerability was assessed by body weight measurements and frequent observation for clinical signs of treatment related side effects.

Trastuzumab: recombinant humanized monoclonal antibody that binds to the extracellular segment of the ErbB2 receptor
rate of cellular proliferation (in words) ([1]; JIMT-1 cells, increasing concentrations): no impact
Inhibition of JIMT-1 cell proliferation (% inhibition) ([1]; Trastuzumab 0.2 μg/ml alone): 1.9%
Inhibition of JIMT-1 cell proliferation (% inhibition) ([1]; Trastuzumab 0.5 μg/ml alone): 3.4%
Inhibition of JIMT-1 cell proliferation (% inhibition) ([1]; Trastuzumab 1.0 μg/ml alone): 4.4%
Inhibition of JIMT-1 cell proliferation (% inhibition) ([1]; Trastuzumab 2.0 μg/ml alone): −1.8%
Inhibition of JIMT-1 cell proliferation (% inhibition) ([1]; Trastuzumab 5.0 μg/ml alone): −6.0%
rate of cellular proliferation (in words) ([2]; HCC1954 cells, increasing concentrations): no impact
Inhibition of HCC1954 cell proliferation (% inhibition) ([2]; Trastuzumab 0.2 μg/ml alone): −6.9%
Inhibition of HCC1954 cell proliferation (% inhibition) ([2]; Trastuzumab 0.5 μg/ml alone): −6.4%
Inhibition of HCC1954 cell proliferation (% inhibition) ([2]; Trastuzumab 1.0 μg/ml alone): −6.5%
Inhibition of HCC1954 cell proliferation (% inhibition) ([2]; Trastuzumab 2.0 μg/ml alone): −15.5%
Inhibition of HCC1954 cell proliferation (% inhibition) ([2]; Trastuzumab 5.0 μg/ml alone): −13.9%
JIMT-1 tumor growth [3]: completely resistant
